# Measurements taken from patent US20190175744A1, “INSULIN-INCRETIN CONJUGATES” (Merck Sharp & Dohme Corp., priority 2016, published 2019).
# Chains of the proteins cited; added tags and fusions are not shown. Residues count along the entry.
# UniProt P43220, 24-463: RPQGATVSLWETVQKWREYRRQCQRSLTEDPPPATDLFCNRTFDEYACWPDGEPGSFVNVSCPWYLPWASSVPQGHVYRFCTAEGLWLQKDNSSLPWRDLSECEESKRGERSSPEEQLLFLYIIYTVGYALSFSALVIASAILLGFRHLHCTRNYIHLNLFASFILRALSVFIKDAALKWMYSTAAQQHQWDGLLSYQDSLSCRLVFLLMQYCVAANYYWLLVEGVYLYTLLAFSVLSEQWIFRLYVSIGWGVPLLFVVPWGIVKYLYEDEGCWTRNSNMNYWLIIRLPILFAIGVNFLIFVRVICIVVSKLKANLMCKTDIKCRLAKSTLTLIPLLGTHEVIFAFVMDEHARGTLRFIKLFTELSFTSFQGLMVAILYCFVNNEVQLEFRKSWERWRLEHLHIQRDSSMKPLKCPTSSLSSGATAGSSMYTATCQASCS
# Target: human GLP1R (Homo sapiens, UniProt P43220)
# Assay: cAMP activity assay, cells expressing human GLP1R
# Type: cell-based
# Details: Table 5, incretin peptides, read-out: hGLP1R EC50
row,Substance,EC50
1,HUQGTFTSD-K(γEγEC16)SKYLDURAAQDFV-Nle(ϵN3)-WLLDTKγE-NH2 [PEP22],0.07 nM
2,HsQGTFTSD-K(γEγEC16)SSYLDURAAQDFV-Nle(ϵN3)-WLLNTKγE-NH2 [PEP9],0.15 nM
